From paper PMC8600089, “The development of a high-affinity conformation-sensitive antibody mimetic using a biocompatible copolymer carrier (iBody)” (The Journal of Biological Chemistry, 2021)

Test system: biotinylated recombinant extracellular part of PSMA
Conditions: 2-PMPA 12.5 μM, n = 4

O=C(O)CCC(CP(=O)(O)O)C(=O)O (stereo not shown) [2-PMPA, 2-(phosphonomethyl)pentane-1,5-dioic acid]
competition with binding of Phage1-TBMB to PSMA, phage ELISA (in words): competed out the binding of Phage1
